Reference: patent publication US20260384428A1, “NOVEL PRMT5 INHIBITOR AND USE THEREOF” (published 2026)

Tests used:
HCT-116 wild-type cells = test: Inhibitory activity on HCT-116 wild-type cell proliferation (Cell-Titer Glo); conditions: read-out: IC50 HCT-116 wild-type cells, 8 days, 37 °C, 0.1% DMSO
Description: (§1) Test case 2: Inhibitory activity test of compounds on HCT-116 wild-type cell proliferation Materials and cells: HCT-116 wild-type cells were purchased from Botron Healthcare (China); RPMI-1640 medium, fetal bovine serum and penicillin-streptomycin were purchased from Thermo Fisher (United States); 384-well plates were purchased from PerkinElmer (United States); and Cell-Titer Glo kits were purchased from Promega (United States).
Cell culture: HCT-116 wild-type cells were cultured in RPMI-1640 medium containing 10% fetal bovine serum+1% penicillin-streptomycin at 37 °C and 5% CO2. Cells in the logarithmic growth phase may be used for the test.
Detection of cell proliferation activity: The Cell-Titer Glo kit was used to detect the proliferation inhibitory activity of the compounds on HCT-116 wild-type cell proliferation. The cell concentration was adjusted, rendering that cells were inoculated into a 384-well plate at 40 μL per well and incubated overnight at 37 °C and 5% CO2. 40 nL of the compound was added into each well to reach a final concentration of 0-10,000 nM (starting concentration: 10,000 nM, 2-fold dilution, 10 points), and the cell plate with 0.1% DMSO content was incubated at 37 °C and 5% CO2 for 8 days. 40 μL of Cell-Titer Glo reagent was added to detect cell activity.

[1] = test system: HCT-116 MTAP(−/−) deficient cells; test: Inhibitory activity on the proliferation of HCT-116 MTAP (−/−) deficient cells (Cell-Titer Glo); conditions: read-out: IC50 HCT-116 MTAP(−/−) deficient cells, 8 days, 37 °C, 0.1% DMSO
From the text: Test Case 1: Inhibitory Activity Test of Compounds on the Proliferation of HCT-116 MTAP (−/−) Deleted Cells
as §1, with “Materials” for “Test case 2: Inhibitory activity test of compounds on HCT-116 wild-type cell proliferation Materials”, “MTAP (−/−) deficient” for “wild-type”
Cell culture: HCT116 MTAP (−/−) deleted cells were cultured in RPMI 1640 medium containing 10% fetal bovine serum+1% penicillin-streptomycin at 37 °C and 5% CO2. Cells in the logarithmic growth phase may be used for the test.
Detection of inhibitory activity on cell proliferation: The Cell-Titer Glo kit was used to detect the proliferation inhibitory activity of the compounds on HCT-116 MTAP (−/−) deficient cells. The cell concentration was adjusted, rendering that cells were inoculated into a 384-well plate at 40 μL per well and incubated overnight at 37 °C and 5% CO2. 40 nL of the compound was added into each well to reach a final concentration of 0-10,000 nM (starting concentration: 10,000 nM, 3-fold dilution, 10 points), and the cell plate with 0.1% DMSO content was incubated at 37 °C and 5% CO2 for 8 days. 40 μL of Cell-Titer Glo reagent was added to detect cell activity.

Compound | IC50 (HCT-116 wild-type cells) | IC50 [1]
CC(c1ccc(C(F)(F)F)cn1)N(C(=O)c1cc2c(cn1)nc(N)c1cncn12)C1CC1 (stereo not shown) | 4240 nM | 72.4 nM
Nc1nc2cc(F)c(C(=O)N(Cc3ccc(C(F)(F)F)nc3)C3CC3)cc2n2cncc12 | > 10000 nM | 98.6 nM
CC(c1ccc(C(F)(F)F)cn1)N(C(=O)c1cc2c(cc1F)nc(N)c1cncn12)C1CC1 (stereo not shown) [Example 29] | 4700 nM | 66.6 nM
C[C@@H](c1ccc(C(F)(F)F)nn1)N(C)C(=O)c1ccc2nc(N)c3cncn3c2c1 | > 10000 nM | > 3000 nM
CC(c1ccc(C(F)(F)F)nn1)N(C(=O)c1ccc2nc(N)c3cncn3c2c1)C1CC1 (stereo not shown) | > 10000 nM | 337 nM
CC(c1cc2ncn(C)c2cn1)N(C(=O)c1cc2c(cc1F)nc(N)c1cncn12)C1CC1 (stereo not shown) | > 10000 nM | > 3000 nM
Nc1nc2ccc(C(=O)N(Cc3ccc(C(F)(F)F)cn3)C3CC3)cc2n2cccc12 |  | 3030 nM
Nc1nc2ccc(C(=O)N(Cc3ccc(OC(F)(F)F)cc3)C3CC3)cc2n2cncc12 | > 10000 nM | 71.1 nM
Cc1nc(C)n2c1c(N)nc1ccc(C(=O)N(Cc3ccc(C(F)(F)F)cn3)C3CC3)cc12 |  | 899 nM
CC(c1ccc(OC(F)(F)F)cc1)N(C(=O)c1ccc2nc(N)c3cncn3c2c1)C1CC1 (stereo not shown) | > 10000 nM | 48.2 nM
Nc1nc2ccc(C(=O)N(Cc3cc4ccccc4cn3)C3CC3)cc2n2cncc12 | > 10000 nM | 216 nM
CC(c1ncccn1)N(Cc1ccc(C(F)(F)F)cn1)C(=O)c1ccc2nc(N)n3ccnc3c2c1 (stereo not shown) | > 10000 nM | 3840 nM
Nc1nc2ccc(C(=O)N(Cc3ccc(C(F)(F)F)cn3)C3CC3)cc2n2cnnc12 | > 3000 nM | > 3000 nM
CC(c1cnc(C(F)(F)F)cn1)N(C(=O)c1ccc2nc(N)c3cncn3c2c1)C1CC1 (stereo not shown) | > 10000 nM | > 3000 nM
[2H]C([2H])([2H])N(C(=O)c1ccc2nc(N)c3cncn3c2c1)[C@H](C)c1ccc(C(F)(F)F)cn1 | > 10000 nM | 38 nM
[2H]C([2H])([2H])N(C(=O)c1cc2c(cc1F)nc(N)c1cncn12)C(C)c1ccc(C(F)(F)F)nn1 (stereo not shown) | > 10000 nM | 96.2 nM
COc1ccc(CN(C(=O)c2cc3c(cc2F)nc(N)c2cncn23)C2CC2)nc1 | > 10000 nM | 84.6 nM
(S)-4-amino-7-fluoro-N-methyl-N-(1-(4-(trifluoromethyl)phenyl)ethyl)imidazo[1,5-a]quinoxaline-8-formamide | > 10000 nM | 1930 nM
C[C@@H](c1ccc(S(F)(F)(F)(F)F)cc1)N(C(=O)c1ccc2nc(N)c3cncn3c2c1)C1CC1 | > 10000 nM | 2510 nM
CC(c1ccc(OC(F)(F)F)cn1)N(C(=O)c1ccc2nc(N)c3cncn3c2c1)C1CC1 (stereo not shown) | > 10000 nM | 56.9 nM

Compound | IC50 (HCT-116 wild-type cells) | IC50 [1]
4-amino-N-cyclopropyl-7-fluoro-N-(6-(trifluoromethyl)pyridazine-3-methyl)imidazo[1,5-a]quinoxaline-8-formamide | > 10000 nM | 92.7 nM
COc1ccc(C(C)N(C(=O)c2cc3c(cc2F)nc(N)c2cncn23)C2CC2)nc1 (stereo not shown) | > 10000 nM | 91.4 nM
Nc1nc2ccc(C(=O)N(Cc3ccc(C(F)(F)F)cn3)C3CC3)cc2c2cccn12 | 8700 nM | 
CN(Cc1ccccc1)C(=O)c1ccc2nc(N)c3cncn3c2c1 | > 3000 nM | > 3000 nM
Nc1nc2ccc(C(=O)N(Cc3ccc(C(F)(F)F)cn3)C3CC3)cc2n2cc(F)cc12 |  | 1610 nM
CC(c1ccc(C(F)(F)F)cn1)N(CC1CC1)C(=O)c1cc2c(cn1)nc(N)c1cncn12 (stereo not shown) | 1320 nM | 39 nM
4-amino-7-fluoro-N-isopropyl-N-(1-(5-trifluoromethyl)pyridin-2-yl)ethyl)imidazo[1,5-a]quinoxaline-8-formamide | 8360 nM | 89.6 nM
CC(c1cc2ccccc2cn1)N(C(=O)c1cc2c(cc1F)nc(N)c1cncn12)C1CC1 (stereo not shown) | > 10000 nM | 93.9 nM
[2H]C([2H])([2H])N(C(=O)c1cc2c(cn1)nc(N)c1cncn12)C(C)c1ccc(C(F)(F)F)cn1 (stereo not shown) | 6340 nM | 57.9 nM
Cc1ccn2c1c(N)nc1ccc(C(=O)N(Cc3ccc(C(F)(F)F)cn3)C3CC3)cc12 |  | 4300 nM
CC(c1ccc(C(F)(F)F)cc1)N(C(=O)c1ccc2nc(N)c3cncn3c2c1)C1CC1 (stereo not shown) | 4330 nM | 51.1 nM
CC(c1ncc(C(F)(F)F)cc1F)N(C(=O)c1ccc2nc(N)c3cncn3c2c1)C1CC1 (stereo not shown) | > 10000 nM | 227 nM
COC[C@@H](C)N(Cc1ccc(C(F)(F)F)cn1)C(=O)c1cc2c(cn1)nc(N)c1cncn12 | 1560 nM | 66.9 nM
Cc1ccc2c(N)nc3ccc(C(=O)N(Cc4ccc(C(F)(F)F)cn4)C4CC4)cc3n12 |  | 7120 nM
C[C@@H](c1cc2ccccc2cn1)N(C(=O)c1cc2c(cc1F)nc(N)c1cncn12)C1CC1 | > 10000 nM | 2870 nM
CC(c1ncccn1)N(Cc1ccc(C(F)(F)F)cn1)C(=O)c1ccc2nc(N)c3nccn3c2c1 (stereo not shown) |  | 5080 nM
CC(c1ccc(C(F)(F)F)cn1)N(C(=O)c1ccc2nc(N)c3cccn3c2c1)C1CC1 (stereo not shown) |  | 5080 nM
Cc1ncc2c(N)nc3ccc(C(=O)N(Cc4ccc(C(F)(F)F)cn4)C4CC4)cc3n12 |  | 322 nM
C[C@@H](c1ccc(C(F)(F)F)cn1)N(C(=O)c1ccc2nc(N)c3cncn3c2c1)C1CC1 |  | 5880 nM

The remaining lines, values ahead:

IC50 (HCT-116 wild-type cells) | IC50 [1] | Compound
945 nM | 15.2 nM | Nc1nc2cc(Cl)c(C(=O)N(Cc3ccc(C(F)(F)F)cn3)C3CC3)cc2n2cncc12
1080 nM | 8.7 nM | (R)-4-amino-7-fluoro-N-methyl-N-(1-(4-(trifluoromethyl)phenyl)ethyl)imidazo[1,5-a]quinoxaline-8-formamide
107 nM | 11.2 nM | C[C@H](c1ncccn1)N(Cc1ccc(C(F)(F)F)cn1)C(=O)c1cc2c(cc1F)nc(N)c1cncn12
1480 nM | 9.7 nM | Nc1nc2cc(F)c(C(=O)N(Cc3ccc(C(F)(F)F)cn3)C3CC3)cc2n2cncc12
1770 nM | 17.5 nM | Cn1cc(N(Cc2ccc(C(F)(F)F)cn2)C(=O)c2cc3c(cn2)nc(N)c2cncn23)cn1
2890 nM | 35.5 nM | Cn1cc(N(Cc2ccc(C(F)(F)F)cn2)C(=O)c2ccc3nc(N)c4cncn4c3c2)cn1
> 10000 nM | 34.6 nM | CC(c1ccc(SC(F)(F)F)cc1)N(C(=O)c1ccc2nc(N)c3cncn3c2c1)C1CC1 (stereo not shown)
3160 nM | 21.9 nM | CC(c1ccc2ccccc2n1)N(C(=O)c1cc2c(cc1F)nc(N)c1cncn12)C1CC1 (stereo not shown)
2820 nM | 13.3 nM | C[C@H](c1ccc(C(F)(F)F)cn1)N(C)C(=O)c1cc2c(cn1)nc(N)c1cncn12
567 nM | 11.2 nM | Cn1cc(N(Cc2ccc(C(F)(F)F)cc2)C(=O)c2cc3c(cn2)nc(N)c2cncn23)cn1
2630 nM | 20.3 nM | C[C@H](c1ccc(C(F)(F)F)cc1)N(C)C(=O)c1ccc2nc(N)c3cncn3c2c1
1540 nM | 34.6 nM | Cn1cc(N(Cc2ccc(C(F)(F)F)cc2)C(=O)c2ccc3nc(N)c4cncn4c3c2)cn1
1610 nM | 18.9 nM | CC(c1ccc(OC(F)(F)F)cn1)N(C(=O)c1cc2c(cc1F)nc(N)c1cncn12)C1CC1 (stereo not shown)
1640 nM | 21.8 nM | Nc1nc2cc(F)c(C(=O)N(Cc3ccc(OC(F)(F)F)cc3)C3CC3)cc2n2cncc12
405 nM | 4.7 nM | C[C@H](c1ccc(S(F)(F)(F)(F)F)cc1)N(C(=O)c1ccc2nc(N)c3cncn3c2c1)C1CC1
7630 nM | 36.3 nM | C[C@H](c1cc2ccccc2cn1)N(C(=O)c1cc2c(cc1F)nc(N)c1cncn12)C1CC1
894 nM | 13.1 nM | CC(c1ccc(S(F)(F)(F)(F)F)cc1)N(C(=O)c1cc2c(cc1F)nc(N)c1cncn12)C1CC1 (stereo not shown)
2000 nM | 11.5 nM | C[C@H](c1ccc(C(F)(F)F)cc1)N(C)C(=O)c1cc2c(cn1)nc(N)c1cncn12
2880 nM | 36.4 nM | Nc1nc2cnc(C(=O)N(Cc3ccc(C(F)(F)F)cn3)C34CC(C3)C4)cc2n2cncc12
> 10000 nM | 19.9 nM | CC(c1ccc(OC(F)(F)F)cc1)N(C(=O)c1cc2c(cc1F)nc(N)c1cncn12)C1CC1 (stereo not shown)
 | 24.7 nM | CC(c1ccc(C(F)(F)F)nn1)N(C)C(=O)c1cc2c(cc1Cl)nc(N)c1cncn12 (stereo not shown)
